Results reported in ChEMBL document CHEMBL5537172 (J Med Chem, 2024).

By UniProt entry, the sequences of proteins in these tests, tags left out.
UniProt P05771, whole entry: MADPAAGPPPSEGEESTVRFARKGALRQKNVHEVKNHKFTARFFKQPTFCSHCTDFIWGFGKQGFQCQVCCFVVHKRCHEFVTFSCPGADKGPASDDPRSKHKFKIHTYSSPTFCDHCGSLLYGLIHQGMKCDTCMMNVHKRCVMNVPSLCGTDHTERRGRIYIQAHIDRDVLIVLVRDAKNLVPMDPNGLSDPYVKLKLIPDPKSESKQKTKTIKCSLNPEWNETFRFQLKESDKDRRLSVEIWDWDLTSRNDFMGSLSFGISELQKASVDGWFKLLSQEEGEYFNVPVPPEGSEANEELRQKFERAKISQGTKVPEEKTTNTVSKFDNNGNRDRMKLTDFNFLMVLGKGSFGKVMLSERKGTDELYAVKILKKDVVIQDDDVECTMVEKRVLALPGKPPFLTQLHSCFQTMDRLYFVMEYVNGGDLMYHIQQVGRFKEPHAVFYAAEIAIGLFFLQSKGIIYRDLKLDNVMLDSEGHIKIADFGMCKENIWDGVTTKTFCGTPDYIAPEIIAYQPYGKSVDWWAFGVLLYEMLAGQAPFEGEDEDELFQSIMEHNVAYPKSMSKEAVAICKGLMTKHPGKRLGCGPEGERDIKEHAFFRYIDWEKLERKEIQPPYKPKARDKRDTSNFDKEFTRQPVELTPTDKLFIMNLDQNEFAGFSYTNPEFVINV

What was measured:
[1] = molecular target: T1, Protein kinase C beta type (Homo sapiens, UniProt P05771); test: Inhibition of PKCbeta2 (unknown origin)
[2] = molecular target: T1, Protein kinase C beta type; test: Inhibition of PKCbeta1 (unknown origin)

IC50 [1]: 12.6 nM
IC50 [2]: 7.4 nM
Structure (SMILES): CN1CCN(c2nc(C3=C(c4c[nH]c5ccccc45)C(=O)NC3=O)c3ccccc3n2)CC1 [SOTRASTAURIN]
